## Yeast mating assay 1: variants of the scFv Ab-14

From the AlphaSeq antibody data of Engelhart et al. 2022 (doi:10.1038/s41597-022-01779-4), copy in the FLAb collection.

Target peptide (SARS-CoV-2 spike, HR2 region): PDVDLGDISGINAS

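Phage display of a naive human antibody library on the peptide gave the parent. AAYL49 was designed without a model: most single CDR substitutions and a random sample of double and triple ones. The assay is AlphaSeq: two haploid yeast populations carry antibody and antigen on their surface. After mating in shaken culture at 30 °C for 16 h, diploids were selected and their barcode pairs sequenced. A regression on co-assayed BCL2-family reference pairs converts the normalised counts of each replicate to an apparent Kd. Each pool was mated in three replicate cultures.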

Ab-14 is the parent antibody, in scFv form: VH, then three GGGGS repeats, then VL. The light chain is unchanged in all variants.
VH: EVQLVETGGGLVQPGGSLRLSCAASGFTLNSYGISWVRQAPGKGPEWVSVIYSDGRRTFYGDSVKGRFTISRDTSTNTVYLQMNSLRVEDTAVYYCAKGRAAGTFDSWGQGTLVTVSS
VL: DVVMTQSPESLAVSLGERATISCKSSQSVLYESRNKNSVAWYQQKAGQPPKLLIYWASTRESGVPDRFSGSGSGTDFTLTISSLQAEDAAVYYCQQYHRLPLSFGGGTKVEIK

Each variant is given by its three heavy chain CDRs, as the data file delimits them; those of the parent are GFTLNSYGIS, VIYSDGRRTFYGDSVK, GRAAGTFDS.
Kd is apparent (estimated from mating counts) and averaged on the log scale over replicates with a signal. Smaller is tighter.
"nd" means that the variant was in the library but no mating with the target was seen in any replicate; the authors take this as a sign of poor binding, and no number exists.
In this assay the parent's reference entry averaged 4.4 nM; its copy inside this library read 13 µM (one replicate of three).
Empty control strains, which show no peptide, gave a signal in 15% of pairings with library AAYL49; the median was 11 µM and 95% of these signals were weaker than 680 nM. No background was subtracted.

CDR-H1	CDR-H2	CDR-H3	Kd	replicates with signal
GFTLNSYGIS	VIYSDGRRTFYGDSYK	GQAAGTFDS	3.2 nM	3 of 3
GFTLNSYGIV	VIYSDGRRTFYGDSVV	GRAAGCFDS	nd	0 of 3
GFTLNSYGIY	VIYTDGRRTFYGDSVK	GRAAGTFAS	1.2 µM	1 of 3
GFTLNSYGIS	VIYSPGRRTFYIDSVK	GRAAGTFDS	62 µM	3 of 3
GQTLNSYGIS	VIYSDGRRTFYGDSVK	HRAAGTFDS	300 µM	1 of 3
GVTDNSYGIS	VIYSMGRRTFYGDSVK	GRAAGTFDS	nd	0 of 3
GFTLNSYGIS	VIYSDGRRTFYGDSNI	GRAAGTFDS	nd	0 of 3
GFTLNSYGIS	VYYSDNRRTFYGDSVK	GRAAGTFDS	nd	0 of 3
GFTLNSYGKS	VIYSFGRRTFWGDSVK	GRAAGTFDS	nd	0 of 3
GFTLNSYGRS	VIYSDGRRTFYGDSVK	GRASGTFDS	14 µM	2 of 3
GFTLNSYGIS	VIYSDMRRTFYGDFRK	GRAAGTFDS	nd	0 of 3
GFAHNSYGIS	VIYSDGGRTFYGDSVK	GRAAGTFDS	nd	0 of 3
GFTCNSYGIS	VIYSDGRRMFYGDSVK	GRAAGAFDS	nd	0 of 3
GFTLNSYGIS	VIYSDGRRDFYGDSVK	QRAAGQFDS	720 nM	2 of 3
GFTLNSYGIS	VIYCDGRRTKYGDSVK	GRAAWTFDS	nd	0 of 3
YFTLNSYGIS	VIYSDGRRTFYSDSVK	GRAACTFDS	180 µM	1 of 3
GQTLNSYGCS	VIYSDGRRTFYGDSVK	GRAMGTFDS	150 µM	1 of 3
GNILNSYRIS	VIYSDGRRTFYGDSVK	GRAAGTFDS	nd	0 of 3
GFTLNSYGIS	VIYSDGRRTFNGDSVK	GRAAGTQDS	17 µM	1 of 3
GFTLNSYGHS	VIYSDGCRTFYGDSVK	GRAAKTFDS	10 µM	2 of 3
TFTLNSYGIS	VIYSWGRRTFYGDSVK	GRAAGTHDS	nd	0 of 3
GFTLNSYGIS	VIYSVGRRTFYGDSVK	GRAAGTRIS	nd	0 of 3
GFTLNSYGIS	VIYSDVRRTFYGDHVK	GRAACTFDS	nd	0 of 3
GFTLNSYGIS	WIYSDGRRTFYGFSVK	GRAAGTADS	nd	0 of 3
GFTLNSYGIS	VIYSDGRRTFYGDSVK	GRSAGTFRS	12 nM	3 of 3
GFNLNRYGIS	VIYSDGRRTFYGDSVK	GRAAGTFDS	50 nM	3 of 3
GFTLNSYGIS	VIYSDGRREFYGDLVK	GEAAGTFDS	nd	0 of 3
GFTLNSYGIS	VIYSDGRRTQAGDSVK	GRAAGTDDS	17 µM	2 of 3
GFTLNSYPIS	VIYSDPRRTFYGDSVK	GRAAGAFDS	11 µM	1 of 3
GFTLNSYGIS	VIYSDGARTFMGDSVK	GRAAGTFNS	1.8 µM	2 of 3
GFTLNSYDIS	VIYSDGNRTFYGDSVK	GRAYGTFDS	5.0 µM	1 of 3
GFTLNSYGIS	VPWSDGRRTFMGDSVK	GRAAGTFDS	nd	0 of 3
GDTLNSYGIS	VIYSDGRRTEYGKSVK	GRAAGTFDS	15 nM	3 of 3
GFTLNSYGIS	VIYSDGDRTFYGDSVK	GRAADTFDQ	nd	0 of 3
GFTLNSYGIS	VIYSPGRRTFYGDSLK	GRPAGTFDS	nd	0 of 3
GFTYNSYGIS	VIYSDGRRTFYGDVQK	GRAAGTFDS	nd	0 of 3
GFTLNSYGIS	VIYSDGRRTFYGDSVN	GRCYGTFDS	2.6 µM	1 of 3
GFTLNSYGIS	VHYSDGRRRFYADSVK	GRAAGTFDS	nd	0 of 3
RFTLNSYGIS	VIYSIGRRTFPGDSVK	GRAAGTFDS	310 µM	2 of 3
GFTLNSYGIS	VIYSDGRRTFYGQSVK	GRAFGEFDS	nd	0 of 3
GFTLLSYGYS	VIYSDGRRTHYGDSVK	GRAAGTFDS	12 µM	3 of 3
GFTLNSYGIS	VIYSWGRRTFYGDSVK	GRAAYTFWS	nd	0 of 3
GFTLNSYGIS	VIYSDGRRTFYGDSVK	GRAAMTVDG	1.9 µM	3 of 3
GFTLNSYGIS	VIYDDGRRTFYGDSVK	GRFADTFDS	nd	0 of 3
GFTLNSYGIS	VIVSDGRRTFYGDSVY	GRAAGTFCS	41 µM	2 of 3
GFTLNAYGIS	VIDSDGRRKFYGDSVK	GRAAGTFDS	8.9 µM	1 of 3
GFTLNWYGIS	VISSDGRRTFYGDSYK	GRAAGTFDS	2.2 µM	1 of 3
GFTLNSYGIS	VIYSWGRRMFTGDSVK	GRAAGTFDS	1.3 mM	1 of 3
GFTLNSYGIS	VIISDIRRTFYGDSVK	GRSAGTFDS	13 µM	1 of 3
GFTLNSYGIS	VIYSDGRRTFYGDSLK	GRAAGSFDS	24 µM	2 of 3
GFTRNSYGIS	SIYSDGRRTFSGDSVK	GRAAGTFDS	nd	0 of 3
GFTLNSYGVS	VIISDGRRTFYGDSVK	GRAAGTFNS	nd	0 of 3
GFTLNSYGIS	VIYSDGRRTFVGDSVH	QRAAGTFDS	nd	0 of 3
GFYLNSYGYS	VIYSDGRRTFYGYSVK	GRAAGTFDS	3.9 µM	1 of 3
LFTLNSCGIS	VIYSQGRRTFYGDSVK	GRAAGTFDS	nd	0 of 3
GFTLNSYGIS	VIYSDGRRTFYGHSVK	GRTAGTFDN	nd	0 of 3
GFTLNSYGIS	VIYSDGRRTFGEDSVK	GRAAGTFDS	10 µM	1 of 3
GFTLNSYGIS	VIYSDGWRTFYGDSVK	GRRAGTFDS	240 nM	2 of 3
GFTLNSYGIS	RIYSDGRRTFYGDSVK	GRAAGTQDS	62 µM	2 of 3
GFTLNSYGIS	VIYSDGRHTFYPDSVK	GRAAGTTDS	nd	0 of 3
GFTLNSDGIS	VIYSDGRRTFYKDSVK	GRAALTFDS	nd	0 of 3
GFTLNSYGFS	VIYHDGRRTFYGDSVK	GRAAGTDDS	3.3 µM	1 of 3
GFTLNSYGIS	VIYSDGRRTFGGDEVK	GRASGTFDS	1.3 µM	1 of 3
GFTLNSYGIS	RIYSDGRRTFYGDSVR	GRAAGTFDA	11 µM	1 of 3
GFTLNSYGIS	VIKSDGSRTFYGDSVK	GRAAGTFYS	nd	0 of 3
GFTLNSYGIS	VIASDGRRTFYGDSCI	GRAAGTFDS	nd	0 of 3
GFTLNSYGIS	NIYSDMRRTFYGDSSK	GRAAGTFDS	nd	0 of 3
GFTLNSYGIS	VIYSDGRRTHYSDSVK	GRKAGTFDS	690 nM	1 of 3
GFTLNSYGIS	VIYSDGRRTFYGPSVK	SRAAGTFDS	32 nM	3 of 3
GFTLNSYGIS	VIYSDGRRYFYGDSVK	GRAAGFFDQ	470 nM	3 of 3
GFTTNSYGIS	SIYTDGRRTFYGDSVK	GRAAGTFDS	nd	0 of 3
GFTLNSYGIS	RIYSDGRRTFYWESVK	GRAAGTFDS	nd	0 of 3
GFTLNSYGIS	VIYSDGVRTFMGDSVK	GRAAGTWDS	2.1 µM	1 of 3
GFTLNSYGIS	VIYSDGRRTFYEDSVW	GRAAGQFDS	100 nM	3 of 3